pIC50, pKi: −log10 of the molar value.

Protein sequences, listed by entry. Tags and fused reporters are not part of them. Residues count along the entry.
UniProt P28335, 33-458 limits assumed: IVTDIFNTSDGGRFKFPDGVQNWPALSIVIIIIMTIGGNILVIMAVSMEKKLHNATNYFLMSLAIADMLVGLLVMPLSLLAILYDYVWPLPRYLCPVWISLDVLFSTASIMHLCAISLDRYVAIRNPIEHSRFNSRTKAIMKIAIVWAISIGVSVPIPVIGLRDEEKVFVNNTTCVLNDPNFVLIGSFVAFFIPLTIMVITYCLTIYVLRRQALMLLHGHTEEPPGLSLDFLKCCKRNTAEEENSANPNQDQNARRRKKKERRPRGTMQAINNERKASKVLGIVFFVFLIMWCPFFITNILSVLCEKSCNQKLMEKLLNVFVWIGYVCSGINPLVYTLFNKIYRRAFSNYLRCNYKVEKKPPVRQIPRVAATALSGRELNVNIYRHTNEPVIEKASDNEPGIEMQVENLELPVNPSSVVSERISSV
UniProt P28223, whole entry: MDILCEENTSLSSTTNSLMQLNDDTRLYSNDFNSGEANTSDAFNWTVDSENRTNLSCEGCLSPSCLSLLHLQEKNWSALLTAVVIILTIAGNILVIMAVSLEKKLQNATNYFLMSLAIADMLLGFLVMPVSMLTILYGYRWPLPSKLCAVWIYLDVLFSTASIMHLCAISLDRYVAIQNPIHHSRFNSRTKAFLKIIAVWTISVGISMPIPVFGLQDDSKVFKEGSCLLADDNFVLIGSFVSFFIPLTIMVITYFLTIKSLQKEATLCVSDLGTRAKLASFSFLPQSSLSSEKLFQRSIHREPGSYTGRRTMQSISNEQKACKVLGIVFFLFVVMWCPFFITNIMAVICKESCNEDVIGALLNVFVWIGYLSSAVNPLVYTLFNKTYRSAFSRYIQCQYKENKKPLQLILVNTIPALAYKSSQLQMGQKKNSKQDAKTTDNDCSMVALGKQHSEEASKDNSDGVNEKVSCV
UniProt P08908, whole entry: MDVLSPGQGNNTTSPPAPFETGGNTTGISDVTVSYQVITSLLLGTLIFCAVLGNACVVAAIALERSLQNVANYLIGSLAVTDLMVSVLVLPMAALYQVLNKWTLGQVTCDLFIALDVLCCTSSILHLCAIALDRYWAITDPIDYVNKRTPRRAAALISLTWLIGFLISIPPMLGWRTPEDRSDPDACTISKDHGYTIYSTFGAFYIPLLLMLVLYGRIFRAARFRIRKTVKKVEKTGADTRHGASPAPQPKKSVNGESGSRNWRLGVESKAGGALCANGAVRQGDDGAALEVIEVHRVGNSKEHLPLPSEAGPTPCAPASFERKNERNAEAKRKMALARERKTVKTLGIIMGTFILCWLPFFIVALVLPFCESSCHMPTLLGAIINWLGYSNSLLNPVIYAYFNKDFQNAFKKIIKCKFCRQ

IC50 and Ki data for 2 compounds are collected here from US20240199555A1, “APPLICATIONS OF BIASED LIGANDS OF THE SEROTONIN 5-HT7 RECEPTOR FOR THE TREATMENT OF PAIN, MULTIPLE SCLEROSIS AND THE CONTROL OF THERMOREGULATION” (Centre National de la Recherche Scientifique, priority 2021, published 2024).

Assay [1] deals with human 5-HT2Cedited receptor (Homo sapiens, UniProt P28335). Kind of assay: Radioligand binding competition, 5-HT2Cedited. The settings on record: selectivity panel; for pIC50: read-out: RLB 5-HT2Cedited IC50; for pKi: read-out: RLB 5-HT2Cedited Ki.
Another assay concerns the target human 5-HT2A receptor (Homo sapiens (Human), UniProt P28223). Kind of assay: Radioligand binding competition, 5-HT2A. The settings on record: selectivity panel; for pIC50: read-out: RLB 5-HT2A IC50; for pKi: read-out: RLB 5-HT2A Ki. The procedure:
(§1) FIG. 14: Testing of 8 molecules for radioligand binding competition activity on recombinant human 5-HT1A, 5-HT2A, 5-HT2Cedited, 5-HT6, 5-HT7 and D2(long) receptors using filtration binding assays.
(§2) Radioligand Binding experiments were conducted with Epics Therapeutics membrane preparations. Receptor accession numbers, cellular background and reference compounds are shown in this table.
(§3) The new compounds have been tested by radioligand binding competition activity at the human 5-HT1A (FAST-0500B), 5-HT2A (FAST-0505B), 5-HT2Cedited (FAST-0507B), 5-HT6 (FAST-0509B), 5-HT7a (FAST-05111B) and D2(long) (FAST-0101B) receptors at seven (7) concentrations, in duplicate. […] Reference values thus obtained for the test were compared to historical values obtained from the same receptor and used to validate the experimental session. For replicate determinations, the maximum variability tolerated in the test was of +/−20% around the average of the replicates.
(§4) Dose-response data from test compounds were analyzed with XLfit (IDBS) software using nonlinear regression applied to a sigmoidal dose-response model and the following equation: • XL Fit fit Model 203: 4 Parameter Logistic Model • A: Bottom • B: TOP • C: LogEC50 • D: Hill

The next assay has as its target human 5-HT1A receptor (Homo sapiens (Human), UniProt P08908). Kind of assay: Radioligand binding competition, 5-HT1A. Conditions: selectivity panel; for pIC50: read-out: RLB 5-HT1A IC50; for pKi: read-out: RLB 5-HT1A Ki. The procedure:
as §1, §2, §3, §4

The pIC50 is −log10 of the IC50, conventionally taken in molar units. For orientation: pKi means the Ki on a negative log10 scale, so that one unit is a factor of ten. Turning to `O=c1[nH]c2ccccc2n1CCCCCN1CCN(c2ccc(Cl)c(Cl)c2)CC1`, the results for the negative-log IC50 (pIC50) (in assay [1]; on human 5-HT2A receptor; on human 5-HT1A receptor) were 6.71, 7.41 and 7.48, respectively. The pKi in assay [1] is 7.49; on human 5-HT2A receptor, 8.20; at human 5-HT1A receptor it was 7.79.
For the compound `Cc1ccc(N2CCN(CCCCCn3c(=O)[nH]c4ccccc43)CC2)cc1`, the pIC50 is 5.90 in assay [1], 7.32 at human 5-HT2A receptor and 6.32 on human 5-HT1A receptor. Moreover, the negative logarithm of the Ki (pKi) was 6.69 in assay [1], 8.11 at human 5-HT2A receptor and 6.62 at human 5-HT1A receptor.
